These results are taken from patent US20040229290A1 (priority 2003, published 2004).

This data set in a line: thermal denaturation monitoring circular dichroism, PMPA designs. (In general: Circular dichroism is the unequal absorption of left and right circularly polarised light.)

ribose-binding protein: the thermostability amounted to 60 °C.
As to glucose-binding protein, the thermostability amounted to 58 °C.
